# Data taken from PubChem BioAssay AID686964 (The Scripps Research Institute Molecular Screening Center, 2013).
# By UniProt entry, the sequences of proteins in these tests, tags left out.
# UniProt Q9UBB5, whole entry: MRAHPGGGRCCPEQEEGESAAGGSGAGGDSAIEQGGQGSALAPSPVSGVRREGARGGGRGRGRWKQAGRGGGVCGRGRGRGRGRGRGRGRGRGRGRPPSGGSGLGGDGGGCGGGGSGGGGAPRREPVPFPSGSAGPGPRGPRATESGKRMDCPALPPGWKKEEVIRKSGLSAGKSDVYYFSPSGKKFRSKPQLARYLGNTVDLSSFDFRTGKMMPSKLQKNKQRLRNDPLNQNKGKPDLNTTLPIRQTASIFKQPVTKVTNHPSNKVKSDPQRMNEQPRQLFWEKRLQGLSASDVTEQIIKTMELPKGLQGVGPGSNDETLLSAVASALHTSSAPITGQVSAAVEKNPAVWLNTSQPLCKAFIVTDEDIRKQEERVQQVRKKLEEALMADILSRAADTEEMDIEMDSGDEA
# This is a selection; strong and weak results do not stand in their true shares. The source made the active and inactive calls. No stated cut-off is given here; in the data, active means inhibition above about 13%; inactive means the rest.
# Target: Methyl-CpG-binding domain protein 2 (Homo sapiens) (UniProt Q9UBB5)
# Assay: MBD2-DBD methyl-oligonucleotide interaction blockers – biochemical, TR-FRET, DNA-binding domain, human, primary screen (AID 686964)
# Conditions: MBD2 binding to methylated oligonucleotide, at 4.4 µM, stronger effect = higher value
row,SMILES,inhibition
1,N/C(=N\O)c1c(N)no[n+]1[O-],inactive: -1.9%
2,CCOC(=O)N1CCC(Nc2ccc(C)cc2)CC1,inactive: 0.86%
3,COc1cccc(C(c2nnnn2C(C)(C)C)N2CCC(n3c(=O)[nH]c4ccccc43)CC2)c1OC (stereo not given),inactive: 3.33%
4,CCCCn1nnnc1C(c1cccc(OC)c1OC)N1CCC(n2c(=O)[nH]c3ccccc32)CC1 (stereo not given),inactive: -3.96%
5,O=C(OC1CN2CCC1CC2)C1c2ccccc2C=Cc2ccccc21 (stereo not given),inactive: 2%
6,O=c1[nH]c2ccccc2n1C1CCN(C(c2cccs2)c2nnnn2C2CCCC2)CC1 (stereo not given),inactive: -1.67%
7,O=C(NCC1(N2CCOCC2)CCCCC1)c1cc(Br)ccc1Cl,inactive: 0.95%
8,CCCCn1nnnc1C(c1ccccc1)N1CCC(n2c(=O)[nH]c3ccccc32)CC1 (stereo not given),inactive: 1.26%
9,COc1cc(C(=O)NCC2(N3CCOCC3)CCCCC2)cc(OC)c1C,inactive: 4.89%
10,COc1ccc(C(=O)NCC2(N3CCOCC3)CCCCC2)cc1OC,inactive: 0.72%
11,O=c1[nH]c2ccccc2n1C1CCN(C(c2ccnc3ccccc23)c2nnnn2C2CCCC2)CC1 (stereo not given),inactive: -2.27%
12,O=c1[nH]c2ccccc2n1C1CCN(C(c2cccs2)c2nnnn2C2CCCCC2)CC1 (stereo not given),inactive: -2.3%
13,NC(=O)C1(Nc2ccccc2)CCN(Cc2ccccc2)CC1,inactive: -0.03%
14,C/C(N)=N\P(=O)(Oc1ccccc1)Oc1ccccc1,inactive: 0%
15,c1ccc(CN2CCC(Nc3ccccc3)CC2)cc1,inactive: 7.19%
16,Cc1cc(N(CCCl)CCCl)ccc1C=O,inactive: -1.84%
17,CCCN1CCC(Nc2cc(OC)cc(OC)c2)CC1,inactive: 7.8%
18,O=c1[nH]c2ccccc2n1C1CCN(C(c2ccccc2)c2nnnn2C2CCCC2)CC1 (stereo not given),inactive: -1.18%
19,CN(C)C1(CNC(=O)c2cccc(C#N)c2)CCCCC1,inactive: 1.46%
20,CC(C)(C)n1nnnc1C(c1cccc2ccccc12)N1CCC(n2c(=O)[nH]c3ccccc32)CC1 (stereo not given),inactive: 1.35%
21,CC(C)(C)OC(=O)N1CCC(N(C(=O)c2ccccc2)c2ccc(Cl)cc2)CC1,inactive: -0.6%
22,N#Cc1ccc(C(=O)NCC2(N3CCCCC3)CCCCC2)cc1,inactive: 2.58%

row,SMILES,inhibition
1,Cc1ccccc1NC1(C#N)CCN(Cc2ccccc2)CC1,inactive: -5.67%
2,CCN1CCC(Nc2cccc(F)c2)CC1,inactive: -0.74%
3,COc1ccc(C(c2nnnn2C2CCCCC2)N2CCC(n3c(=O)[nH]c4ccccc43)CC2)cc1 (stereo not given),inactive: 0.24%
4,CC(C)(C)n1nnnc1C(c1ccnc2ccccc12)N1CCC(n2c(=O)[nH]c3ccccc32)CC1 (stereo not given),inactive: -1.27%
5,O=C(NCC1(N2CCCCC2)CCCCC1)c1ccco1,inactive: -0.44%
6,CN(C)c1ccc(C(=O)NCC2(N3CCCCC3)CCCCC2)cc1,inactive: -4.37%
7,Cn1c(=O)[nH]cc(N(CCCl)CCCl)c1=O,inactive: -4.37%
8,COc1cc(OC)cc(C(=O)NCC2(N3CCCCC3)CCCCC2)c1,inactive: 0.77%
9,O=c1[nH]c2ccccc2n1C1CCN(C(c2ccnc3ccccc23)c2nnnn2C2CCCCC2)CC1 (stereo not given),inactive: 1.1%
10,COc1cccc(C(c2nnnn2C2CCCCC2)N2CCC(n3c(=O)[nH]c4ccccc43)CC2)c1OC (stereo not given),inactive: 0.79%
11,CC(=O)N(c1ccccc1)C1CCNCC1,inactive: 5.19%
12,CCC(c1nnnn1C1CCCCC1)N1CCC(n2c(=O)[nH]c3ccccc32)CC1 (stereo not given),inactive: 2.4%
13,Cc1ccc(NC2(C#N)CCN(Cc3ccccc3)CC2)cc1,inactive: -6.05%
14,Cc1ccc(C(=O)NCC2(N3CCCCC3)CCCCC2)o1,inactive: -6.49%
15,Fc1ccccc1NC1CCN(Cc2ccccc2)CC1,inactive: -0.63%
16,CCC(CO)(C(=O)OC1CN2CCC1CC2)c1ccccc1 (stereo not given),inactive: -1.09%
17,COc1cccc(C(=O)N(c2cc(C)cc(C)c2)C2CCN(C(=O)OC(C)(C)C)CC2)c1,inactive: -3.83%
18,COc1cccc(C(c2nnnn2C2CCCC2)N2CCC(n3c(=O)[nH]c4ccccc43)CC2)c1OC (stereo not given),inactive: -5.71%
19,COc1cc(OC)cc(C(=O)NCC2(N3CCOCC3)CCCCC2)c1,inactive: -0.79%
20,CN1CCC(Nc2ccc(Cl)cc2)CC1,inactive: 6.9%
21,CCOc1ncccc1C(=O)NCC1(N2CCOCC2)CCCCC1,inactive: -4.32%
22,CN1CCC(Nc2ccc(F)c(Cl)c2)CC1,inactive: 2.57%

row,SMILES,inhibition
1,O=c1[nH]c2ccccc2n1C1CCN(C(c2cc3ccccc3o2)c2nnnn2C2CCCC2)CC1 (stereo not given),inactive: 3.03%
2,CCCOc1ccc(C(=O)NCC2(N(C)C)CCCCC2)cc1,inactive: 4.51%
3,CC(C)(C)OC(=O)N1CCC(Nc2ccccc2)CC1,inactive: 0.79%
4,NN(c1ccccc1)C1CCN(CCc2ccccc2)CC1,inactive: -3.88%
5,O=C(O)C1(Nc2ccccc2)CCN(Cc2ccccc2)CC1,inactive: 3.7%
6,O=C(NCC1(N2CCOCC2)CCCCC1)c1cc2ccccc2o1,inactive: -2.21%
7,O=C(NCC1(N2CCCCC2)CCCCC1)c1ccc(Cl)nc1,inactive: -0.43%
8,O=c1[nH]c2ccccc2n1C1CCN(C(c2ccccc2OC(F)(F)F)c2nnnn2C2CCCCC2)CC1 (stereo not given),inactive: -1.22%
9,Cc1cc(C)cc(N(C(=O)c2ccccc2)C2CCN(C(=O)OC(C)(C)C)CC2)c1,inactive: 3.26%
10,CCOC(=O)N1CCC(Nc2ccc(OC)cc2)CC1,inactive: -1.36%
11,CCCCn1nnnc1C(c1ccc(OC)cc1)N1CCC(n2c(=O)[nH]c3ccccc32)CC1 (stereo not given),inactive: 0.13%
12,N#CC1(Nc2ccccc2)CCN(Cc2ccccc2)CC1,inactive: 1.37%
13,O=C(NCC1(N2CCCCC2)CCCCC1)c1ccc(Cl)s1,inactive: 4.37%
14,O=c1[nH]c2ccccc2n1C1CCN(C(c2cc3ccccc3o2)c2nnnn2C2CCCCC2)CC1 (stereo not given),inactive: 0.21%
15,O=C(OC1CN2CCC1CC2)C1c2ccccc2Oc2ccccc21 (stereo not given),inactive: 1.02%
16,COc1ccc(Cl)cc1C(=O)NCC1(N2CCOCC2)CCCCC1,inactive: -2.57%
17,O=C(NCC1(N2CCCCC2)CCCCC1)c1ccc(=O)[nH]c1,inactive: 1.53%
18,O=C(NCC1(N2CCCCC2)CCCCC1)c1cccs1,inactive: -4.12%
19,CCCCn1nnnc1C(CC)N1CCC(n2c(=O)[nH]c3ccccc32)CC1 (stereo not given),inactive: -2.17%
20,CCCCn1nnnc1C(c1cccs1)N1CCC(n2c(=O)[nH]c3ccccc32)CC1 (stereo not given),inactive: -0.72%
21,COc1ccc(C(=O)NCC2(N3CCCCC3)CCCCC2)cc1,inactive: 2.1%
22,CC(C)(C)OC(=O)N1CCC(N(C(=O)c2ccccc2)c2ccc(F)cc2)CC1,inactive: -0.14%

row,SMILES,inhibition
1,COc1ccc(C(=O)NCC2(N3CCCCC3)CCCCC2)c(OC)c1OC,inactive: 1.04%
2,CCC(c1nnnn1C1CCCC1)N1CCC(n2c(=O)[nH]c3ccccc32)CC1 (stereo not given),inactive: 1%
3,CSc1ccccc1C(=O)NCC1(N2CCCCC2)CCCCC1,inactive: -1.98%
4,Cc1cccc(NC2(C#N)CCN(Cc3ccccc3)CC2)c1,inactive: 4.55%
5,O=c1[nH]c2ccccc2n1C1CCN(C(c2ccccc2)c2nnnn2C2CCCCC2)CC1 (stereo not given),inactive: 7.67%
6,O=c1[nH]c2ccccc2n1C1CCN(C(c2cccc3ccccc23)c2nnnn2C2CCCC2)CC1 (stereo not given),inactive: -1.26%
7,CCOC(=O)N1CCC(Nc2cccc(C)c2)CC1,inactive: 5.85%
8,COc1cc(C(=O)NCC2(N(C)C)CCCCC2)ccc1OC(F)F,inactive: 1.24%
9,CCOc1ccc(C)cc1CN(CCCl)CCCl,inactive: -1.03%
10,CC(C)(C)n1nnnc1C(c1ccccc1)N1CCC(n2c(=O)[nH]c3ccccc32)CC1 (stereo not given),inactive: 2.35%
11,O=C1CCN(Cc2ccccc2)CC1,inactive: 2.32%
12,CCCCOc1ccc(C(=O)NCC2(N3CCOCC3)CCCCC2)cc1,inactive: 1.27%
13,O=P1(N(CCCl)CCCl)SCCCS1,inactive: -1.29%
14,CCCCn1nnnc1C(c1cc2ccccc2o1)N1CCC(n2c(=O)[nH]c3ccccc32)CC1 (stereo not given),inactive: 1.41%
15,O=C(NCC1(N2CCCCC2)CCCCC1)c1ccc(F)cc1,inactive: -2.45%
16,CCOC(=O)N1CCC(Nc2ccc(F)cc2)CC1,inactive: -8.74%
17,COc1ccc(NC2CCN(CCc3ccccc3)CC2)c(OC)c1,inactive: 4.33%
18,O=C(NCC1(N2CCCCC2)CCCCC1)c1cccc(C(F)(F)F)c1,inactive: 4.01%
19,CC(C)c1ccc(C(=O)NCC2(N3CCOCC3)CCCCC2)cc1,inactive: 3.86%
20,COc1ccc(NC2CCN(C(=O)OC(C)(C)C)CC2)cc1,inactive: -3.23%
21,CN1CCN(CCOC(=O)C(O)(c2ccccc2)c2ccccc2)CC1,inactive: -2.56%
22,CCCCn1nnnc1C(c1cccc2ccccc12)N1CCC(n2c(=O)[nH]c3ccccc32)CC1 (stereo not given),inactive: -5.19%

row,SMILES,inhibition
1,O=C(NCC1(N2CCOCC2)CCCCC1)c1cc(=O)[nH]c2ccccc12,inactive: -1.8%
2,COc1cc(C(=O)NCC2(N3CCCCC3)CCCCC2)ccc1OC(F)F,inactive: -5.04%
3,CC(C)(C)n1nnnc1C(c1ccccc1OC(F)(F)F)N1CCC(n2c(=O)[nH]c3ccccc32)CC1 (stereo not given),inactive: -6.47%
4,O=C(NCC1(N2CCCCC2)CCCCC1)c1ccc(OC(F)F)cc1,inactive: -0.54%
5,CSc1ccc(C(=O)NCC2(N3CCOCC3)CCCCC2)cc1,inactive: -6.19%
6,O=C(NCC1(N2CCCCC2)CCCCC1)c1cccc([N+](=O)[O-])c1,inactive: 2.67%
7,CCN1CCC(Nc2ccc(Cl)cc2)CC1,inactive: 10.2%
8,O=c1[nH]c2ccccc2n1C1CCN(C(c2ccccc2OC(F)(F)F)c2nnnn2C2CCCC2)CC1 (stereo not given),inactive: 2.21%
9,N#CC1(Nc2ccccc2)CCN(CCc2ccccc2)CC1,inactive: -0.49%
10,CN1CCC(Nc2cccc(F)c2)CC1,inactive: -0.59%
11,O=C(NCC1(N2CCCCC2)CCCCC1)c1cncc(Br)c1,inactive: -4.2%
12,Cc1ccc(C(=O)NCC2(N(C)C)CCCCC2)o1,inactive: -0.81%
13,CCCOc1ccc(C(=O)NCC2(N(C)C)CCCCC2)cc1OC,inactive: 2.15%
14,COc1ccc(C(c2nnnn2C2CCCC2)N2CCC(n3c(=O)[nH]c4ccccc43)CC2)cc1 (stereo not given),inactive: -0.2%
15,COc1ccc(CN(CCCl)CCCl)cc1Cl,inactive: 6.38%
16,COC(=O)C1(Nc2ccccc2)CCN(Cc2ccccc2)CC1,inactive: -1.13%
17,CN(C)c1cccc(C(=O)NCC2(N3CCCCC3)CCCCC2)c1,inactive: -1.21%
18,CC(C)c1ccc(NC2CCN(C(=O)OC(C)(C)C)CC2)cc1,inactive: 0.11%
19,CCCCn1nnnc1C(c1ccnc2ccccc12)N1CCC(n2c(=O)[nH]c3ccccc32)CC1 (stereo not given),inactive: -10.8%
20,COc1cc(OC)c(C(=O)NCC2(N(C)C)CCCCC2)cc1OC,inactive: -2.81%
21,CCC(c1nnnn1C(C)(C)C)N1CCC(n2c(=O)[nH]c3ccccc32)CC1 (stereo not given),inactive: 0.68%
22,O=C(NCC1(N2CCOCC2)CCCCC1)c1cc(F)c(F)cc1Cl,inactive: 7.15%
